Data on 70 molecules can be found in PubChem BioAssay AID1347041 (National Center for Advancing Translational Sciences (NCATS), 2019).

SMILES strings stand for the structures. Only a part is listed here, and it is no random draw. Active and inactive are the calls of the source. Cut-off read from the data, not from the text of the source: active = activity change below about -30%; inconclusive = mostly about -25% to -30%; inactive = weaker than that.

This test addresses L-lactate dehydrogenase A chain (Homo sapiens) (UniProt P00338). The test can be described thus: qHTS assay for inhibitors of human lactate dehydrogenase.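 Note: values are at about 110 or 230 µM; plate controls were DMSO wells for no effect and wells without enzyme for full effect.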 To be noted: purified LDHA, NADH/diaphorase-resazurin fluorescence; stronger effect = lower value. A digest of the protocol: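 Human LDH5 (2 nM) was incubated with 0.06 mM NADH and 0.2 mM pyruvate for 5 min at room temperature in Tris pH 7.4. Remaining NADH was coupled through diaphorase/resazurin, and resorufin fluorescence was read at 0 and 20 min.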
In general terms: qHTS replaces the single test concentration by a dilution series.
With `C[C@@H]1C=CCP(=O)(Oc2ccccc2)O1` (stereo not given in full), the activity change is inactive: -4.26%. The same measure for `C[C@H]1OP(=O)(Oc2ccccc2)C[C@@H]2O[C@@H]21` (stereo not given in full): inactive: -3.15%; for `CC(=O)Nc1ccc([As](=O)(O)O)c(O)c1`: inactive: 3.56%; for `CC(=O)Nc1ccc(Oc2c([N+](=O)[O-])cc([N+](=O)[O-])cc2[N+](=O)[O-])cc1`: inactive: 1.48%. Take `O=P1(Nc2nc3ccc(Cl)cc3s2)COc2ccccc2O1` (stereo not given): the activity change is inactive: 15.6%. In the case of `CCOc1ccc(C2=NCC(CBr)S2)cc1` (stereo not given) it was inactive: -1.73%; in that of `CCc1cc(O)c([N+](=O)[O-])c(C)c1[N+](=O)[O-]`, inactive: 7.07%. Regarding `CC(C)(C)C(=O)NC(Sc1ccccc1)C(Cl)(Cl)Cl` (stereo not given), the activity change is inactive: -4.75%. The same measure for `COC(=O)c1cc2c(s1)N=C(c1ccccc1)N(C)P2(=O)N1CCOCC1` (stereo not given): inactive: -3.74%; for `CCn1nc(C(=O)NCC2(N3CCCCC3)CCCCC2)c2ccccc2c1=O`: inactive: -3.6%; for `Cc1ccc(OP(=O)(Nc2ccccn2)Oc2ccc(C)cc2)cc1`: inactive: -7.15%. In the case of `CC(=O)NC(SC(=S)N(CC(C)C)CC(C)C)C(Cl)(Cl)Cl` (stereo not given) it was inactive: 1.07%; in that of `O=C(OC1CN2CCC1CC2)c1ccccc1` (stereo not given), inactive: -6.87%; in that of `CCC(=O)N1C2C3N(C(=O)CC)C1C1N(C(=O)CC)C(C(N1C(=O)CC)N3C(=O)CC)N2C(=O)CC`, inactive: -4.83%. Turning to `Cc1ccccc1OP(=O)(Nc1ccccn1)Oc1ccccc1C`, the activity change was inactive: -0.365%. In the case of `CC(NC(=O)COC(=O)C(O)(c1ccccc1)c1ccccc1)c1ccccc1` (stereo not given), the activity change was inactive: -2.19%.

As for `CN(C)C(=O)Oc1noc2ccccc12`, the activity change was inactive: -15.6%. Turning to `O=c1c2cc([N+](=O)[O-])ccc2[nH]c2c([N+](=O)[O-])cc([N+](=O)[O-])cc12`, the activity change is inactive: 12.4%.

Regarding `CCNC(=S)/N=C(\N)N[N+](=O)[O-]`, the activity change was inactive: 1.14%. On to `O=C(NC1CCS(=O)(=O)C1)NP(=S)(Oc1ccccc1)Oc1ccccc1` (stereo not given), for which the activity change was inactive: 0.0551%. On to `c1ccc(-c2nn[nH]n2)c(-c2nn[nH]n2)c1`, for which the activity change is inactive: -1.99%. In the case of `Cc1ccc(NP(=O)(Oc2cccc(C)c2)Oc2cccc(C)c2)nc1` it was inactive: -6.26%; in that of `O=P1(N(CCCl)CCCl)OCCC2CCCCN21` (stereo not given), inactive: -4.14%; in that of `CCN(N=Nc1nonc1N)c1nonc1N`, inactive: -3.99%. In the case of `Nc1cccc2ccc([As](=O)(O)O)cc12` it was inactive: 12.3%; in that of `O=C(O)c1ccccc1[As](=O)(O)O`, inactive: -9.61%; in that of `BrCCNCCc1ccncc1`, inactive: -7.12%. In the case of `CC(=O)Nc1ccc([As](=O)(O)O)cc1` it was inactive: -5.5%; in that of `CCCC1OP(N)(=O)OCC1CC` (stereo not given), inactive: -4.8%; in that of `CN(C)P(=O)(N(C)C)n1c(Nc2ccccc2)nnc1-c1ccccc1`, inactive: 0.0215%. `O=P(Nc1nc2ccc(Cl)cc2s1)(c1ccccc1)c1ccccc1`: the activity change is inactive: -9.5%. The same measure for `CCOP(=O)(Nc1ccccc1)OCC`: inactive: -1.8%. As for `Cc1cc(SC(NC(=O)c2ccc(F)cc2)C(Cl)(Cl)Cl)ncn1` (stereo not given), the activity change was inactive: -3.4%.

Take `Cc1ccc(NP(=O)(Oc2ccccc2F)Oc2ccccc2F)nc1`: the activity change is inactive: -7.13%. The same measure for `CN(C(=O)Cc1ccc(Cl)c(Cl)c1)[C@H]1CCCC[C@@H]1N1CCCC1`: inactive: 1.26%; for `CC(C)CC(=O)NC(Sc1ccc(Cl)cc1)C(Cl)(Cl)Cl` (stereo not given): inactive: -6.48%; for `Nc1cc(N)c2nonc2c1[N+](=O)[O-]`: inactive: 18.4%. Regarding `Oc1ccccc1CNc1ccccn1`, the activity change is inactive: -2.28%.

For `O=C(NC(Sc1ccncn1)C(Cl)(Cl)Cl)c1ccccc1` (stereo not given), the activity change was inactive: -1.41%. In the case of `O=[N+]([O-])C1C(O)C(O)C([N+](=O)[O-])C(O)C1O` (stereo not given) it was inactive: -3.18%; in that of `O=[N+]([O-])c1cc2c(cc1[N+](=O)[O-])OCO2`, inactive: 2.88%; in that of `NC(=O)c1cc([N+](=O)[O-])cc([N+](=O)[O-])c1N`, inactive: -1.33%.

For the molecule `CN(C(=O)Cc1ccc(Cl)c(Cl)c1)[C@H]1CCCC[C@H]1N1CCCC1`, the activity change was inactive: -8.76%. The same measure for `Cc1ccc(N/C(=N/P(=O)(N2CCOCC2)N2CCOCC2)N2CCOCC2)cc1`: inactive: -0.0122%.

For `COc1ccccc1OP(=O)(Nc1ccc(C)cn1)Oc1ccccc1OC`, the activity change is inactive: -8.66%.

As for `Cc1ccc(OP(=O)(Nc2nccs2)Oc2ccc(C)cc2)cc1`, the activity change was inactive: -4.01%.

Regarding `Clc1ccc(Cl)c(NC2=NCC(CBr)S2)c1` (stereo not given), the activity change is inactive: -5.38%. The same measure for `CN1CCCC(OC(=O)C(c2ccccc2)c2ccccc2)C1` (stereo not given): inactive: -0.199%; for `Nc1ccc([As](=O)(O)c2ccc(N)cc2)cc1`: inactive: 1.08%. In the case of `C[N+]1=C2C=CC=CC=C2SC12C([N+](=O)[O-])=CC([N+](=O)[O-])=C[C-]2[N+](=O)[O-]` (stereo not given) it was inactive: 6.16%.

On to `CCN(/C(=N/P(=O)(N1CCOCC1)N1CCOCC1)N1CCOCC1)c1ccc(OC)cc1`, for which the activity change was inactive: -1.11%. In the case of `CC(C)=N/N=C(\N)N[N+](=O)[O-]` it was inactive: -17.1%; in that of `CC(C)c1nc(Nc2ccccc2)n(P(=O)(N(C)C)N(C)C)n1`, inactive: -3.12%. As to `CN(C)C(=O)OCCc1n(C)cc[n+]1C`, the activity change was inactive: -4.01%. For `c1cc(-c2nn[nH]n2)ccc1-c1nn[nH]n1`, the activity change is inactive: 6.14%. As to `CC1CCN(C(=O)Oc2c(Cl)cc(Cl)c3cccnc23)CC1`, the activity change was inactive: -3.88%. Take `COc1ccc(C2=NCC(CBr)S2)cc1` (stereo not given): the activity change was inactive: -12.1%.

Consider `O=[N+]([O-])c1cccc2n[nH]nc12`, for which the activity change is inactive: -1.26%. The same measure for `CC(=O)N1C2C3N(C(C)=O)C1C1N(C(C)=O)C(C(N1C(C)=O)N3C(C)=O)N2C(C)=O`: inactive: -10.4%; for `Cc1ccc(NP(=O)(Oc2ccccc2)Oc2ccccc2)nc1`: inactive: -0.789%; for `CCc1nc2c(n1)c1c(non1O)c1c2no[n+]1[O-]`: inactive: 33.9%. The same measure for `O=[N+]([O-])c1cc([N+](=O)[O-])c(CCNc2ccccc2)c([N+](=O)[O-])c1`: inactive: 8.06%; for `CC(C)(C)C(=O)NC(Sc1ccncn1)C(Cl)(Cl)Cl` (stereo not given): inactive: 0.926%; for `O=[N+]([O-])c1ncn(CCn2ncnc2[N+](=O)[O-])n1`: inactive: 4.84%. Regarding `O=[N+]([O-])c1cccc(NC2=NCC(CBr)S2)c1` (stereo not given), the activity change is inactive: -0.212%. `COC(=O)C1(C)COP(=O)(Nc2ccccc2)OC1` (stereo not given): the activity change was inactive: -9.48%. The same measure for `O=C(O)CNc1ccc([As](=O)(O)O)cc1`: inactive: -1.3%. Turning to `O=P1(N(CCCl)CCCl)OCCCS1` (stereo not given), the activity change is inactive: -17.2%. On to `O=C(Nc1cc([As](=O)(O)O)ccc1O)c1ccccc1`, for which the activity change was inactive: -3.62%. In the case of `O=P(/N=c1/nc(-c2ccccc2)n(-c2ccccc2)s1)(Nc1ccccc1)Nc1ccccc1` it was inactive: -23.1%.
